The values that follow come from PubChem BioAssay AID504414 (Broad Institute, 2011).

As a reminder, the inhibition is the relative decrease from the control value, in per cent.

The list shows a part of the results, in another mix than the full data. Activity calls are given as the source filed them.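 Rule for the calls: active = highest replicate inhibition of at least 40%; inactive = the rest.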

This assay addresses Golgi-associated PDZ and coiled-coil motif-containing protein (Homo sapiens) (UniProt Q9HD26). Briefly: disruption of CAL PDZ-reporter peptide interaction – biochemical, fluorescence polarization, Cer-tagged CAL PDZ, HTS, primary screen (AID 504414).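 Note: plate controls were DMSO neutral control wells for no effect and unlabeled competitor peptide control wells for full effect.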 Particulars: purified CAL PDZ, TMR-peptide fluorescence polarization, 1 h; at 20 µM; stronger effect = higher value. (In fluorescence polarisation assays a small probe gives low polarisation when free and higher when bound to something large.)
In the case of `CCC(=O)N(c1ccccc1)C1(COC)CCN(CCn2nnn(CC)c2=O)CC1`, the inhibition is inactive: -0.517%. In the case of `CCC(=O)N(c1ccccc1)C1(COC)CCN(CCc2cccs2)CC1`, the inhibition was inactive: 0.109%.
